Rango complex inh = Rango-importin beta binding inhibition; Q14974; Rango CFP/YFP FRET sensor + importin beta, 45 min; Potency, µM (series often up to 92.2 µM); 340,000 tested, 0.031% active; AID 540263; also: nearly all actives have a fitted effect of over 15% in size
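FRET biosensor (snurportin 1 IBB flanked by EYFP and cerulean), 50 nM, with compound 5 min, then 0.125 microM importin beta in PBS, 1 mM DTT, 0.02% Tween-20, 0.1% BSA. CFP/YFP ratio read after 45 min at room temperature; pre-read flags interference.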
Mm-Cpn inhibitor = inhibitors of Methanococcus maripaludis chaperonin TRiC (MmCpn); purified Mm-Cpn ATPase, ADP Transcreener TR-FRET; Potency, µM (doses to about 76.9 µM), actives largely listed as inhibitors; 330,000 tested, 0.031% active; active = well fitted curve in the direction sought with a large enough effect; inconclusive = small, poorly fitted or top-dose-only effect, or another doubt; inactive = no such curve, though single readings can be large; an effect the other way counts as inactive or inconclusive; also: nearly all actives have a fitted effect of over 80% in size
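Eu-cryptate anti-ADP/ADP-d2 competition gives a ratio inversely related to ADP. Enzyme at 25 nM was pre-exposed to compound for 10 min, then given 10 uM ATP for 30 min, 37°C throughout.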
CCT chaperon mod = cytosolic chaperonin activity modulation | activity change, % (concentration not given with the values), hits read low | purified chaperonin ATPase assay, HTRF ADP detection, 30 min | 360,000 tested, 0.3% active | AID 651819; in the data active = activity change below about -30%
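TRiC at 40 or 20 nM final (batch-dependent) in 30 mM Tris pH 7.4, 100 mM KCl, 5 mM MgCl2, 1 mM DTT, with compound at single 76 uM and 10 uM ATP, 30 min at 37 deg C. ADP detected by HTRF Transcreener, 665/615 ratio.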
Rango release inh = inhibitors of RanGTP-induced Rango-importin beta complex dissociation | O95149+P62826 | Biochemical FRET Rango-importin beta, RanGTP-induced dissociation | Potency, µM (doses to about 46.1 µM) | 340,000 tested, 0.071% active | AID 540253; also: nearly all actives have a fitted effect of over 45% in size
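Two FRET readings bracket the reaction: one 5 min after compound meets Rango–importin beta, another 45 min after RanGTP-RCC1 (0.6 uM Ran, 0.2 uM RCC1, 2 mM GTP) is added. Only the second defines inhibition.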
a7 integrin act = activators of alpha7 integrin expression for muscular dystrophy | 350,000 tested, 0.064% active | alpha7betagal myoblasts, beta-gal FDG fluorescence, 48 h | Potency, µM (series often up to 38.3 µM), most hits filed as activators; active = well fitted curve in the direction sought with a large enough effect; inconclusive = small, poorly fitted or top-dose-only effect, or another doubt; inactive = no such curve, though single readings can be large; an effect the other way counts as inactive or inconclusive; also: nearly all actives have a fitted effect of over 60% in size
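alpha7betagal+/- myoblasts (passage 13, 250/well) treated 48 h at 37C with compounds at 1:260 dilution of DMSO stock. Lysed, then beta-galactosidase activity read as FDG fluorescence (ex 480/em 540) after 30 min, with pre-read for autofluorescence.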
Hits are given with their value; n = inactive; u = inconclusive; x = not tested or not shown. Only some compounds are listed: those with a hit (about 0.51% of all), similar ones and a draw of the others. Unless noted, calls follow the shape of the full dose curve.

SMILES	Rango complex inh	Mm-Cpn inhibitor	CCT chaperon mod	Rango release inh	a7 integrin act
O=C(NCCCn1ccnc1)/C(=C/c1ccco1)NC(=O)c1ccco1	n	n	n	n	u
O=C(NCCCn1ccnc1)/C(=C/c1cccs1)NC(=O)c1ccco1	n	n	n	n	8.91µM
CN(C)c1ccnc2sc(C(=O)c3ccc(Br)cc3)c(N)c12	n	n	n	u	n
CCOc1ccc2ccccc2c1C1NC(=O)N(C)C(C)=C1C(=O)OCCOC (stereo not drawn)	n	n	n	n	6.31µM
CCOC(=O)C1=C(C)N(C)C(=S)NC1c1c(OCC)ccc2ccccc12 (stereo not drawn)	n	n	n	n	u
O=C(c1[nH]c(C(F)(F)F)nc1-c1ccccc1)N1CCN(Cc2c(F)cccc2Cl)CC1	x	x	n	x	x
CCC1C(=O)C(CC)C(c2ccccc2)NC1c1ccccc1 (stereo not drawn)	n	n	-49.8	n	n
COC(=O)[C@H]1[C@H]2C[C@@H]3c4[nH]c5cc(OC)ccc5c4CCN3C[C@H]2C[C@@H](OC(=O)c2cc(OC)c(OC)c(OC)c2)[C@@H]1OC	u	n	n	11.6µM	x
COC(=O)C1C2CC3c4[nH]c5cc(OC)ccc5c4CCN3CC2CC(OC2CCCCO2)C1OC (stereo not drawn)	x	x	n	x	n
COc1ccc2[nH]c(=O)c(CN(Cc3nnnn3Cc3ccco3)C3CCCCC3)cc2c1	u	n	n	n	n
COc1ccc2cc(CN(CCc3ccccc3)Cc3nnnn3Cc3ccco3)c(=O)[nH]c2c1	u	n	n	14.6µM	n
CCOc1ccccc1C(=O)NCC(=O)N(C)CC(=O)Nc1ccc(N2CCOCC2)cc1	x	x	n	x	n
Cc1nc2c(C(=O)NCCC3=CCCCC3)c[nH]n2c(=O)c1Cl	n	n	-38.8	n	n
Cc1nc2c(C(=O)NCc3ccc4c(c3)OCO4)c[nH]n2c(=O)c1Cl	n	n	n	n	n
O=C1NC[C@H](CCCCN2C[C@H](Cc3ccc(O)cc3)N(CC3CCCCC3)C(=O)C2=O)N(Cc2ccccc2)C1=O	x	x	n	x	x
N=c1nc2n(cc1F)C1OC(CO)C(O)C1O2 (stereo not drawn)	n	x	-48.0	n	n
CSc1ccc(C(O)c2ncc(-c3ccc(F)cc3)[nH]2)cc1 (stereo not drawn)	x	x	n	x	x
Cc1ccc(S(=O)(=O)NNC(=O)c2csnn2)cc1	51.7µM	n	n	u	n
Cc1ccc(S(=O)(=O)NNC(=O)c2ccccc2O)cc1	n	n	n	n	n
O=C(Nc1ccc(-c2noc(CCc3ccccc3)n2)cc1)c1ccco1	n	n	-55.8	n	n
Cc1ccccc1N1CCN(C(=O)c2ccccc2NC(=O)c2ccccc2C(=O)O)CC1	n	n	-66.2	n	n
Cc1ccc(-c2cc(C(=O)OC3CCOC3=O)c3ccccc3n2)c(C)c1 (stereo not drawn)	n	n	n	n	n
O=C(OC1CCOC1=O)c1cc(-c2cccs2)nc2ccccc12 (stereo not drawn)	n	n	-74.0	n	n
CC(C)(C)n1nnnc1C(c1cc2ccccc2o1)N1CCN(C(=O)OCc2ccccc2)CC1 (stereo not drawn)	x	x	n	x	x
O=C(COC(=O)/C=C/c1ccc(OC(F)F)cc1)NC(=O)NC1CCCCC1	n	n	n	n	n
SMILES	Rango complex inh	Mm-Cpn inhibitor	CCT chaperon mod	Rango release inh	a7 integrin act
O=C(COC(=O)/C=C/c1ccc(OC(F)F)cc1)NC1CCCC1	n	n	-117.1	n	n
CCn1c(Oc2cccc(Br)c2)nc2c1c(=O)n(C)c(=O)n2C	n	n	-44.2	n	n
CCCn1c(Oc2ccccc2)nc2c1c(=O)n(C)c(=O)n2C	n	n	n	n	n
COc1cc(Cl)ccc1OC1(C)CCN(Cc2c(F)cccc2F)C1 (stereo not drawn)	x	x	n	x	x
COc1ccccc1C(=O)COC(=O)Cn1[nH]c(=O)c2ccccc2c1=O	n	n	-30.8	n	n
COCCCNC(=O)c1ccc2sc(C3=C[C@@H](O)[C@@H](O)[C@@H](CO)O3)nc2c1	x	x	n	x	x
COc1cccc(N2CCN(C(=O)CCc3nnc4ccc(N5CCCC5)nn34)CC2)c1	n	n	-41.7	n	n
COc1ccc(OCC(=O)Nc2c(Cl)ccc3nsnc23)cc1	n	n	n	n	n
O=C(O)COc1ccc2nsnc2c1Cl	u	6.31µM	n	u	n

Assay outcomes deposited in PubChem by National Center for Advancing Translational Sciences (NCATS).
